The text below walks through data of patent publication US6632960B2, “Diaryliodonium salt catalysts made from iodotoluene and a method for preparing them” (Goldschmidt AG, priority 2002, dated 2003).

The data set can be described thus: Iodonium catalyst solubility studies: time to dissolve to a clear solution at 70° C.

Regarding `CCCCCCCCCCCCC(O)COc1ccc([I+]c2ccccc2)cc1` (centres unmarked) [PCX-2506, [4-(2-hydroxy-1-tetradecyloxy)-phenyl] phenyliodonium hexafluoroantimonate, reference compound], under “in EECH (Union Carbide ERL-4221E), moderately nonpolar”, the “time to dissolve to a 3 wt. % solution at 70° C.” value was found to be 4.5 h. Also, the “time to dissolve to a 3 wt % solution at 70° C.” value (in nonpolar Polyset PC1000 disiloxane) was determined as 2.25 h.
